Laboratory results published in PubChem BioAssay AID445 (National Center for Advancing Translational Sciences (NCATS), 2006).
The other results are listed elsewhere or left out. Some of these compounds have results that are not shown, active ones among them. Results filed as inconclusive are left out. Calls of active or inactive are those of the source. The call rests on the fitted dose curve; in most records, active means well fitted curve in the direction sought with a large enough effect in the signal ratio (not every such curve was filed as active); inconclusive means small, poorly fitted or top-dose-only effect, or a change in a side signal; inactive means flat fitted curve, though single readings scatter; the % refers to the signal ratio.

Assay: IkB Signaling;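 further: 0% = basal untreated cells and 100% = reference inhibitor full response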
Conditions: ABC-DLBCL IkBa-CBG/CBR dual luciferase ratio (green luciferase fused to IkBa over red control in OCI-Ly3 lymphoma cells), 4 h, scaled: untreated 0%, proteasome inhibitor 100%; at 57.1 µM (top of the series) unless noted
Description: NIH Molecular Libraries Screening Centers Network [MLSCN]
NIH Chemical Genomics Center [NCGC]
Nuclear factor kappa-B (NF-kappa-B) plays an important role in normal B cell development and survival. Diffuse large B cell lymphoma (DLBCL) is the most commonly observed type of non-Hodgkin's lymphoma. Gene expression analysis has identified an activated B cell-like subtype of DLBCL (ABC-DLBCL) which expresses known NF-kappa-B target genes. […] However, targets upstream of IKK have been largely unexplored and so nodes upstream of IKK in the NF-kappa-B pathway remain untested due to the lack of chemical probes.
A cell-sensor assay for I-kappa-B-alpha stabilization was developed with NIH investigator Dr. R. Eric Davis in Dr. Louis M. Staudt's laboratory. The assay uses green (CBG68) and red (CBR) emitting beetle luciferases [Chroma-Glo(TM) developed by Promega Corp.] where the green luciferase is fused to I-kappa-B-alpha and the red luciferase is present in its native state. Both luciferase genes are stably present in the OCI-Ly3 human ABC DLBCL cell line, but their expression is under the control of tetracycline-inducible promoters. Following the addition of doxycycline to induce expression of the luciferases, the green luminescence in control cultures rises only slowly because the CBG fusion partner I-kappa-B-alpha is targeted by IKK activity for rapid degradation. In contrast, green luminescence rises rapidly in the presence of proteasome inhibitors or IKK inhibitors. The rise in red luminescence of CBR is not affected by proteasome or IKK inhibitors, and serves as normalization for cell number and nonspecific effects. Compounds were screened as a concentration-titration series that ranged from 57 uM to 0.7 nM.
NCGC Assay Protocol Summary:
Cells were seeded in 1536-well plates at 5000 cells/3ul in IMDM medium containing 0.5% FBS, w/o phenol red, L-glutamine, 25 mM HEPES, 3 mg/ml sodium bicarbonate. After centrifugation for 1 min. at 1000 rpm, 23 nl of compounds or DMSO were delivered to each well using a pin tool. Then 1ul 80ng/ml doxycycline was dispensed into white solid 1536-well plates and the plates were incubated at 37C/5% C02 in a cell incubator for 4 hrs. Then 4 ul Chroma-Glo luminescent substrate mix (Promega) was added to each well. The plate was incubated at R.T. for 10-15 min. The plates were measured on a ViewLux plate reader for green luminescence (540/20 nm filter) and red luminescence (618/8 nm filter). The green and red luminescent signals were corrected for red and green luminescence filter overlap using previously determined filter calibration constants (determined using the procedure outlined in the Promega Technical Manual). The %Activity was determined from the ratio of corrected green/red luminescent values. Green luminescent and ratio %Activity was determined by normalizing to the difference in signal between basal cells (0% Activity) and cells incubated with 10 uM of the proteasome inhibitor MG-132 (100% Activity). Red luminescent %Activity was normalized to the difference between red luminesence in basal cells (0%Activity) and zero luminescence (-100% Activity).
Concentration-response curves were fitted to the signals arising from the green luminescence (I-kappa-B-alpha-luciferase fusion; IkB-luc) and the red luminescence (unfused luciferase; luc) as well as the calculated ratio. The concentration-effect curves were then classified based on curve quality (r2), response magnitude and degree of measured activity. Compounds were then categorized based on their concentration-response curves for all three datasets (Ikb-luc, luc and ratio).
Keywords: IKK, I-kappa-B, IkB, IkBa, cytotoxicity, luminescence, MLSMR, MLSCN, NIH Roadmap, qHTS, NCGC

With `CCCCOc1ccccc1C(=O)NCC1(N(C)C)CCCCC1` as the molecule, how does the IkBa stabilization activation read?
The IkBa stabilization activation was inactive: 0.842%.

For `CN(C)C1(CNC(=O)c2ccccc2[N+](=O)[O-])CCCCC1`, which IkBa stabilization activation is on record?
The IkBa stabilization activation was inactive: 1.18%.

For `CCOc1cccc(C(=O)NCC2(N(C)C)CCCCC2)c1`, which IkBa stabilization activation is on record?
Its IkBa stabilization activation is inactive: 0.121%.

For `CN(C)C1(CNC(=O)c2ccccc2F)CCCCC1`, which IkBa stabilization activation is on record?
Its IkBa stabilization activation is inactive: -1.26%.

Which IkBa stabilization activation does the source give for `CN(C)C1(CNC(=O)c2cccc(Cl)c2)CCCCC1` here?
Its IkBa stabilization activation is inactive: -0.753%.

Which IkBa stabilization activation does the source give for `C=C(C)C#C[C@@](O)(C(=O)OC1CCN(C)CC1)c1ccccc1` here?
The IkBa stabilization activation was inactive: 0.685% [at 11.4 µM].

With `COc1cccc(C(=O)NCC2(N3CCOCC3)CCCCC2)c1` as the molecule, how does the IkBa stabilization activation read?
Its IkBa stabilization activation is inactive: -0.567%.

Which IkBa stabilization activation does the source give for `CN1CCC[C@H](OC(=O)[C@](O)(c2ccccc2)C2CCCC2)C1` here?
Its IkBa stabilization activation is inactive: 0.9% [at 11.4 µM].

Which IkBa stabilization activation does the source give for `CN1CC[C@H](OC(=O)[C@](O)(c2ccccc2)C2CCCC2)C1` here?
Its IkBa stabilization activation is inactive: 0.736% [at 11.4 µM].

For `O=C(OC1CN2CCC1CC2)C(CO)(c1ccccc1)c1ccccc1` (stereo not given), which IkBa stabilization activation is on record?
Its IkBa stabilization activation is inactive: -0.119%.

With `CC(C)Oc1ccc(C(=O)NCC2(N(C)C)CCCCC2)cc1` as the molecule, how does the IkBa stabilization activation read?
Its IkBa stabilization activation is inactive: -0.503%.

For `CN(C)c1cccc(C(=O)NCC2(N(C)C)CCCCC2)c1`, which IkBa stabilization activation is on record?
Its IkBa stabilization activation is inactive: 0.402%.

Which IkBa stabilization activation does the source give for `Cc1cccc(C(=O)NCC2(N(C)C)CCCCC2)c1` here?
Its IkBa stabilization activation is inactive: -2.06%.

Which IkBa stabilization activation does the source give for `COc1cc(C(=O)NCC2(N(C)C)CCCCC2)cc(OC)c1OC` here?
Its IkBa stabilization activation is inactive: 0.966%.

For `COc1ccc(C(=O)NCC2(N(C)C)CCCCC2)cc1Cl`, which IkBa stabilization activation is on record?
Its IkBa stabilization activation is inactive: 0.999%.
